Measured values reported in paper PMC8237747 (Journal for Immunotherapy of Cancer, 2021).

Target: HZ-L-Yr-16-Fc
Assay: ELISA

B1: Human CD40 (receptor)
chain: EPPTACREKQYLINSQCCSLCQPGQKLVSDCTEFTETECLPCGESEFLDTWNRETHCHQHKYCDPNLGLRVQQKGTSETDTICTCEEGWHCTSEACESCVLHRSCSPGFGVKQIATGVSDTICEPCPVGFFSNVSSAFEKCHPWTSCETKDLVVQQAGTNKTDVVCGPQDRLR
binding result: no binding
